The source of these data is patent US20230390274A1 (EPIRIUM BIO INC., priority 2020, published 2023).

The chains behind the UniProt entries cited, without tags or fusion partners.
UniProt P15428, whole entry: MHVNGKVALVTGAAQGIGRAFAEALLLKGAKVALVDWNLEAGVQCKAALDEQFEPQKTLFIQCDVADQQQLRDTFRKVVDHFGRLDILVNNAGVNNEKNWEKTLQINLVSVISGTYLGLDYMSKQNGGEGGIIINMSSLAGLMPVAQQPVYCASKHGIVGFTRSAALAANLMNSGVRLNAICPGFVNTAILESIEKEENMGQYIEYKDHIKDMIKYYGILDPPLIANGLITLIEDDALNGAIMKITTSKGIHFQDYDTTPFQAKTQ

pIC50: −log10 of the molar value. Some results are limits rather than exact numbers.

The assay addresses 15-PGDH/HPGD (Homo sapiens (Human), UniProt P15428). Description: hPGDH inhibitor screening biochemical assay. Conditions: read-out: hPGDH: Average IC50; 10 nM 15-PGDH/HPGD, 15 μM PGE2, 0.25 mM NAD. As for the experimental part: A hydroxyprostaglandin dehydrogenase inhibition screening biochemical assay can be performed to assess the synthesized inhibitors provided herein. Provided herein is an exemplary biochemical assay for hPGDH inhibitor screening.
The in vitro biochemical assay can be performed in white, 384 plates in total 20 μl reaction volume consisting of 10 nM of 15-PGDH/HPGD (R&D System #5660-DH), 15 μM Prostaglandin E2 (Sigma, Cat #P5640-10MG) and 0.25 mM β-Nicotinamide adenine dinucleotide sodium salt (Sigma, Cat #N0632-5G) made in reaction buffer (50 mM Tris-HCl, pH 7.5, 0.01% Tween 20) at 10-point dose response curve for test/tool compounds. Briefly, 5 μl (4×) of compounds solution and 5 μl (final concentration, 10 nM) of enzyme solution is added to white 384 well plates and incubated for 10 mins at 37° C. 5 μl (4×) of Prostaglandin E2 and 5 μl (4×) of β-Nicotinamide adenine dinucleotide sodium salt is added to the wells and incubated for 10 mins at rt. Fluorescence is recorded at ex/em=340 nm/485 nm. The percentage (%) inhibition of enzyme activity was determined relative to […] (1% DMSO) and IC50 was calculated using GraphPad prism software (four parameter-variable slope equation).
`O=C(c1cnc2c(c1)ncn2-c1ccc(OC(F)F)cc1)N1CCC(F)CC1`: the pIC50 was 6.00 to 7.00.

`O=C(NC1CCS(=O)(=O)CC1)c1ccc(-n2ccc3cc(C(=O)N4CCC(F)(F)CC4)cnc32)cc1`: the pIC50 is above 7.00.

As for `COc1ccc(-n2nc(Cl)c3cc(C(=O)N4CCC(F)CC4)ccc32)cc1`, the pIC50 is 6.00 to 7.00.
